Only a part of the results on these compounds is given; other tests are left out.
Assays:
[1] = system: Rhodococcus rhodochrous 11Y whole cells; assay: Whole cell incubation of RDX with cells of 11Y; settings: 300 μM RDX, 30° C., 12 hour period, FIG. 2
[2] = system: RDX degrading enzymic activity (crude extract of Rhodococcus rhodochrous 11Y); assay: Nitrite release from RDX by crude extract (Griess reagent); settings: 50 μM RDX, 5 mM DTT
[3] = system: RDX degrading enzymic activity (membrane fraction of Rhodococcus rhodochrous 11Y); assay: RDX degradation by membrane fraction, HPLC / nitrite release; settings: 50 μM RDX, 30° C.
[4] = system: RDX degrading enzymic activity (cell free extract of Rhodococcus rhodochrous 11Y); assay: RDX degradation by cell free (crude) extract, disappearance of RDX by HPLC; settings: 30° C., 50 mM Tricine, 50 μM RDX, 5 mM DTT, 0 to 60 min

O=[N+]([O-])N1CN([N+](=O)[O-])CN([N+](=O)[O-])C1
concentration of formaldehyde [1]: also increased
concentration of nitrite [1]: seen to increase
RDX degradation (TLC) and nitrite production ([2]; crude extract (French press), Tricine pH 8.0): RDX degradation and concomitant nitrite production were observed
concentration of nitrite (Griess reagent) ([2]; crude extract, 30° C., 0 to 60 min, FIG. 1): seen to increase
nitrite production [3]: produced nitrite
concentration of RDX (HPLC) ([3]; 50 mM Tricine, 5 mM DTT, 0 to 60 min): seen to decrease with elapsed time
concentration of RDX (HPLC) [4]: seen to decrease
